Test system: anaerobia
Experiment: spontaneous anaerobic fermentation of flour paste sealed with rapeseed oil
Format: cell-based
Conditions: about 7 months spontaneous fermentation, air blocked with rapeseed oil; amounts added as

Substance	aqueous solution above the settled flour
calcium formate	clear and transparent
ferrous sulfate	clear and transparent
selenium dioxide	clear and transparent
sodium formate	clear and transparent

Source: patent publication US20200121716A1, “Method for Inhibiting Both Glycolysis and Glutamine Metabolism in Cells and Use Thereof” (priority 2017, published 2020)
